The numbers were not newly measured in patent publication US12005185B2, “Medical counter measures including dry powder formulations and associated methods” (dated 2024), which cites them from elsewhere.

Assay in data set [1]: not given
This is another data set of the same source.

For `O=C(O)C(=O)CS`, the half-life result was “too short to be clinically effective”.

On to sulfanegen, for which the “long-term stability in solution” value in data set [1] is “poor long-term stability in solution”.
